# This is a selection; strong and weak results do not stand in their true shares. Calls of active or inactive are those of the source.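 The calls were made as follows: active = inhibition or corrected inhibition above about 18%, plus a signal ratio from 0.5 to 1.5 (limit read from the data, passing the limit was not always enough); inactive = the rest.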
# Protein sequences, listed by entry. Tags and fused reporters are not part of them.
# UniProt O14786, whole entry: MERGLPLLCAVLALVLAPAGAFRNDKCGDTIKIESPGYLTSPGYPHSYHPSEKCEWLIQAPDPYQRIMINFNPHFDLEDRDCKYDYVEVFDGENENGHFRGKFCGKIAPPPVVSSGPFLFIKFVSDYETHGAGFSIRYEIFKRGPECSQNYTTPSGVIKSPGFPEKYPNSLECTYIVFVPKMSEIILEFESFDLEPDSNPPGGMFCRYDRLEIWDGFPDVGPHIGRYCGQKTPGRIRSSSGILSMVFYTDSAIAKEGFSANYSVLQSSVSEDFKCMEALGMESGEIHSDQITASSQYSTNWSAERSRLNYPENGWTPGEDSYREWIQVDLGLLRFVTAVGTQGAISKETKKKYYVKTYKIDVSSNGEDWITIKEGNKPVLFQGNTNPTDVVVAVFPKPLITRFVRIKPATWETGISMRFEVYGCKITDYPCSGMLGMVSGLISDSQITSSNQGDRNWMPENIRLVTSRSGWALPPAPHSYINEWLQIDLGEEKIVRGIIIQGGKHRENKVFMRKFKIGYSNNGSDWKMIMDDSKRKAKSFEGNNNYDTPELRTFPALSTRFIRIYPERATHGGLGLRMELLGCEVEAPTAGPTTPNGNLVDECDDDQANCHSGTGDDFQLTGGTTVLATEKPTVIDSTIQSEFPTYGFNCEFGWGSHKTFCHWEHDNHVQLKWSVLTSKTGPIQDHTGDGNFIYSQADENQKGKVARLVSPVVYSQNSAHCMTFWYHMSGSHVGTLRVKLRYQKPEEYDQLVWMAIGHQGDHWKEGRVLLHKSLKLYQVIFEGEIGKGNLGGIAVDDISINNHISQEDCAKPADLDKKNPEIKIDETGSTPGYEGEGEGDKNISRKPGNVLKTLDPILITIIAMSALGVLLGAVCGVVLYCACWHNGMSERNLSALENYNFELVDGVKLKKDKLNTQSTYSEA
# Molecular target: Neuropilin-1 (Homo sapiens) (UniProt O14786)
# Experiment: NRP-1/CendR peptide interaction modulators – biochemical, fluorescence polarization, uHTS, primary screen (AID 602438)
# Settings: FAM-RPARPAR peptide binding to NRP-1, fluorescence polarization; at 25 µM; stronger effect = higher value
row,Structure (SMILES),inhibition
1,CCC(=O)N(c1ccccc1)C1(COC)CCN(CCn2nnn(CC)c2=O)CC1,inactive: -2.9%
2,CCC(=O)N(c1ccccc1)C1(COC)CCN(CCc2cccs2)CC1,inactive: -6.5%

# Source: PubChem BioAssay AID602438 (Sanford-Burnham Center for Chemical Genomics, 2012)
